Assay results as given in PubChem BioAssay (NCI).
Several values for one entry are separate records, joined by “and”; a condition that tells them apart may be missing. Identical values can stand only once. This is a selection; strong and weak results do not stand in their true shares.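 How to read the values: 0–100, growth inhibition (40 = 60% inhibited); 0, no net growth; -100 to 0, cell death (-40 = 40% of starting cells died; -100 = all dead).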 Some salts and complexes are drawn in separate pieces, as the source files them; their charges need not balance. Activity calls are given as the source filed them. Rule for the calls: active = growth percent below 10; inactive = the rest.

system: MDA-MB-468 breast; test: NCI-60 one-dose screen, 48 h (100 = growth as untreated, 0 = no growth, -100 = all killed); settings: 10 µM

SMILES	growth
CN(CCCl)CCCCCCCl	inactive: 94.2%
CN/C(N)=N/[N+](=O)[O-]	inactive: 103%
CC[N+](C)(CC)Cc1cc(Cc2ccccc2)ccc1OC(=O)N(C)C	inactive: 100%
CC[N+]([O-])(CC)Cc1ccccc1.O=[N+]([O-])c1cc([N+](=O)[O-])c(S(=O)(=O)O)c([N+](=O)[O-])c1	inactive: 93%
O=[N+]([O-])c1cccc([N+](=O)[O-])c1O	inactive: 116%
CCN(C)CC.O=[N+]([O-])c1cc([N+](=O)[O-])c(O)c([N+](=O)[O-])c1	inactive: 109%
N=C(N)N(N)[N+](=O)[O-]	inactive: 101%
CCCOP(=S)(Cl)OCCC	inactive: 113%
Nc1cc([N+](=O)[O-])cc([N+](=O)[O-])c1O	inactive: 123% and inactive: 96%
COc1ccccc1-c1ccccn1.O=[N+]([O-])c1cc([N+](=O)[O-])c(O)c([N+](=O)[O-])c1	inactive: 105%
CP(=O)(OCCCCl)N(CCCl)CCCl (stereo not given)	inactive: 93.6%
O=C1N([N+](=O)[O-])CCN1[N+](=O)[O-]	inactive: 101%
Nc1cc([As](Cl)Cl)cc(N)c1O	inactive: 56.1%
O=[N+]([O-])OCC(O[N+](=O)[O-])C(CO[N+](=O)[O-])O[N+](=O)[O-] (stereo not given)	inactive: 108%
CNc1ccccc1.O=[N+]([O-])c1cc([N+](=O)[O-])c(O)c([N+](=O)[O-])c1	inactive: 100%
CCOP(=O)(CC)OCC	inactive: 97.5%
CCN(CC)CCOC(=O)C(O)(c1ccccc1)c1cc(C)c(C)c(C)c1C (stereo not given)	inactive: 94.3%
CCOC(=O)CSc1c(N)c(C)nn1C.O=[N+]([O-])c1cc([N+](=O)[O-])c(O)c([N+](=O)[O-])c1	inactive: 108%
O=[N+]([O-])N(CCN(CC(Br)([N+](=O)[O-])[N+](=O)[O-])[N+](=O)[O-])CC(Br)([N+](=O)[O-])[N+](=O)[O-]	inactive: 98.7%
O=[N+]([O-])c1cc([N+](=O)[O-])c(O)c([N+](=O)[O-])c1.c1ccnnc1	inactive: 94.6%
CCCCCCCOP(=O)(CC)OCCCCCCC	inactive: 94.8%
NN/C(N)=N/[N+](=O)[O-]	inactive: 106%
O=[N+]([O-])c1cc([N+](=O)[O-])c(C(F)(F)F)c([N+](=O)[O-])c1O	inactive: 98.1%
O=[N+]([O-])c1ccc(OP2(=O)COCCO2)cc1 (stereo not given)	inactive: 104%
Clc1ccccc1SCCBr	inactive: 99.6%
CP(=S)(Cl)N(CCCl)CCCl (stereo not given)	inactive: 95%
Nc1cccc(Cl)c1.O=[N+]([O-])c1cc([N+](=O)[O-])c(O)c([N+](=O)[O-])c1	inactive: 98.5%
OCCSCCO	inactive: 104%
O=[N+]([O-])c1cc([N+](=O)[O-])c(O)c([N+](=O)[O-])c1.c1ccc([I+]c2ccccc2)cc1	inactive: 39.1%
O=[N+]([O-])N(CCOC(N(F)F)(N(F)F)N(F)F)CC([N+](=O)[O-])([N+](=O)[O-])[N+](=O)[O-]	inactive: 111%
